Yeast mating assay 1: variants of the scFv Ab-14

Reference: Engelhart et al. 2022, doi:10.1038/s41597-022-01779-4. File: FLAb, binding data.

The target is the same throughout: PDVDLGDISGINAS, from the HR2 region of SARS-CoV-2 spike.

Parent scFv Ab-14: VH joined to VL by a (GGGGS)3 linker. Changes lie in the heavy chain CDRs alone.
VH: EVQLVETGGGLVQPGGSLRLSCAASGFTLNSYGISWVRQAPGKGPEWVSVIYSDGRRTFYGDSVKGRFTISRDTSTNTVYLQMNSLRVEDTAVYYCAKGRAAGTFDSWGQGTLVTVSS
VL: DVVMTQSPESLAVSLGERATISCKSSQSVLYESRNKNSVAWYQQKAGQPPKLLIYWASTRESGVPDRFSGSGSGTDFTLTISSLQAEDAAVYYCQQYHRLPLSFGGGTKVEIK

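The starting antibody came from a phage panning campaign against this peptide. Variants in AAYL49 differ from the parent at up to three CDR positions; double and triple changes were sampled at random. In AlphaSeq, yeast of one mating type display the scFv and yeast of the other type display the target. After mating in shaken culture at 30 °C for 16 h, diploids were selected and their barcode pairs sequenced. Read counts were normalised to the haploid input and turned into Kd by a linear fit to BCL2-family pairs of known affinity, for each replicate. Each pool was mated in three replicate cultures.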

Substitutions are numbered in sequence along the VH above, starting at 1 (not Kabat).
This list gathers variants with a substitution at F27 (VH, numbered from residue 1).
The Kd shown is the geometric mean over detected replicates; a lower Kd is a better binder.
Where no diploid with the target was found in any replicate, the entry reads "nd": below detection, most likely a poor binder, though not proof of it.

The variant F27G Y32P A102P showed nd (0 of 3 replicates). For F27I G103S S107F, the assay gave nd (0 of 3 replicates). The variant F27Y R57P V64E showed nd (0 of 3 replicates). For F27I I51F D106Q, the assay gave nd (0 of 3 replicates). The variant F27S R57D S107Y showed nd (0 of 3 replicates). The variant F27Y S53G V64G showed nd (0 of 3 replicates). The variant F27G N30Y S31N showed 160 nM (2 of 3 replicates). With F27M S31V Y32L the result was nd (0 of 3 replicates).

The variant F27T S35Y G61M gave nd (0 of 3 replicates). The variant F27K S35M gave 6.6 µM (3 of 3 replicates). For F27Y L29E T104C, the assay gave 14 µM (1 of 3 replicates). The variant G26N F27D N30S gave 120 nM (3 of 3 replicates). The variant F27N G61P D106Y gave nd (0 of 3 replicates). With F27T R57P A102F the result was nd (0 of 3 replicates). The variant F27T L29H gave nd (0 of 3 replicates). The variant F27H G103R gave 650 nM (3 of 3 replicates).

With F27S S53V G103R the result was 3.5 µM (3 of 3 replicates). For G26K F27D V50Q, the assay gave nd (0 of 3 replicates). The variant F27L D54A G61I gave nd (0 of 3 replicates). For F27M Y52S G55M, the assay gave 870 nM (1 of 3 replicates). The variant F27H L29R showed nd (0 of 3 replicates). The variant G26I F27L S35D showed nd (0 of 3 replicates). The variant F27R I34Q D106T showed 190 µM (2 of 3 replicates). The variant F27I Y32K I34G gave 6.8 µM (1 of 3 replicates).

The variant F27Y S35Y D106L showed nd (0 of 3 replicates). The variant F27M V50M T58S gave nd (0 of 3 replicates). The variant F27P R57Q showed 14 µM (2 of 3 replicates). The variant F27R G33A gave 940 nM (1 of 3 replicates). For F27G D54E R57H, the assay gave 5.9 µM (1 of 3 replicates). With F27A Y32W G33N the result was 180 µM (1 of 3 replicates). With F27R S31K S35I the result was 23 µM (3 of 3 replicates). For G26N F27S F59I, the assay gave nd (0 of 3 replicates).

The variant F27G Y52P F105E gave 64 µM (1 of 3 replicates). With F27C D54V the result was nd (0 of 3 replicates). The variant F27P T28N A101S showed 350 nM (3 of 3 replicates). The variant F27R T28Q D54Q gave nd (0 of 3 replicates). The variant F27I I34H S53G gave 110 µM (1 of 3 replicates). The variant F27G S35C S53T showed 7.1 µM (1 of 3 replicates). For F27C L29M T58A, the assay gave nd (0 of 3 replicates). For F27I L29N V50N, the assay gave nd (0 of 3 replicates).

With G26Y F27M G33C the result was nd (0 of 3 replicates). With F27G T28G F59Q the result was 1.8 µM (2 of 3 replicates). With F27Y R57N G61Q the result was 140 µM (1 of 3 replicates). The variant F27V V64C T104Y gave nd (0 of 3 replicates). With F27H I51F R57M the result was 19 µM (1 of 3 replicates). With F27M Y32R R57G the result was nd (0 of 3 replicates). With F27N R100L A101K the result was 130 nM (3 of 3 replicates). The variant F27P F59D G61S gave 4.7 µM (2 of 3 replicates).

The variant F27W D54P G55W gave nd (0 of 3 replicates). For F27M S31I R100H, the assay gave 560 nM (3 of 3 replicates).

Three control strains display no target. For library AAYL49, 15% of the pairings with them gave a signal, with a median of 11 µM and one signal in twenty below 680 nM, so weak values seen in few replicates may be background.
Parent in this assay: reference entry 4.4 nM, copy in this library 13 µM (one replicate of three).